Epigenetic reg: derepresses silenced GFP reporter in murine cells; Potency, µM (series often up to 53.9 µM), most hits filed as activators; murine LDR cells, GFP reporter derepression, 30 h; actives 0.2% (n = 280,000); AID 1865; also: nearly all actives have a fitted effect of over 60% in size
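Reporter derepression read as number of fluorescent GFP-positive objects, 20-120 um in size, counted by laser-scanning cytometer. Mouse LDR line with an epigenetically silenced CMV-GFP locus; compound incubation 30 h, 37 C.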
Vif-APOBEC3G blk: Vif-A3G binding inhibition. Potency, µM (series often up to 46.1 µM), most hits filed as inhibitors. HeLa A3G-eYFP + Vif (tagged APOBEC3G with the HIV-1 protein that degrades it), YFP fluorescence, overnight. Q9HC16. actives 0.076% (n = 410,000); also: nearly all actives have a fitted effect of over 60% in size
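Read-out is eYFP fluorescence (Ex 488/Em 500-530) from Vif-expressing HeLa A3G-eYFP cells; more signal means A3G escaped Vif-mediated degradation. Cells plated overnight, compound pinned in, incubated overnight at 37 deg C.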
Vif-APOBEC3F blk: blocks the Vif interaction with APOBEC3F | HeLa A3F-eYFP + Vif (tagged APOBEC3F with the HIV-1 protein that degrades it), YFP fluorescence increase | Potency, µM (top dose mostly 46.1 µM) | actives 0.2% (n = 390,000) | AID 602313; also: nearly all actives have a fitted effect of over 65% in size
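Fluorescence increase (Ex 488/Em 500-530) after overnight compound treatment at 37 deg C flags inhibition of Vif-driven A3F-eYFP loss in stable HeLa A3F-eYFP/Vif cells seeded overnight beforehand.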
miR-21 reporter: raises the signal of a miR-21 reporter | HeLa miR-21 FLuc reporter, luciferase, 48 h | Potency, µM (highest dose often 38.3 µM) | 340,000 tested, under 10 active | AID 2288; active = well fitted rising curve with a large enough effect; inconclusive = small, poorly fitted or top-dose-only effect; inactive = no such curve, though single readings can be large or run the other way;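 also: miR-21 action dims this reporter so a rising signal means less miR-21 action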
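HeLa cells endogenously expressing miR-21, stably carrying CMV-driven firefly luciferase with a downstream miR-21 binding site, 2000 cells/well. Titrations up to approximately 40 uM, 48 hours; luciferase luminescence read.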
C127i cell count: parental c127i cell effect of epigenetic modulator hits; shares compounds with Epigenetic reg; mouse c127i parental cells, fluorescent cell count, 30 h; Potency, µM, usual class: activators; actives 20% (n = 60); AID 493065
HCC4017 viab: reduces HCC4017 lung cancer cell viability among epigenetic modulators | shares compounds with Epigenetic reg | HCC4017 NSCLC viability, CellTiter-Glo ATP luminescence, 72 h | Potency, µM (series often up to 46.1 µM), most hits filed as cytotoxic | actives 30% (n = 45)
H358 viab: H358 cytotoxicity of epigenetic modulator hits; H358 NSCLC viability, ATP luminescence, 72 h; shares compounds with Epigenetic reg; Potency, µM (doses to about 46.1 µM), hits mostly cytotoxic; actives 30% (n = 45)
Each line names hits and unclear results; the compound was inactive in the other large screens (follow-up assays come after a bar, where they were run). Hits are enriched below; roughly 0.34% of the tested compounds scored in any of these assays. Unless noted, calls follow the shape of the dose curve; as a rule, active = well fitted curve in the direction sought with a large enough effect; inconclusive = small, poorly fitted or top-dose-only effect, or another doubt; inactive = no such curve, though single readings can be large; an effect the other way counts as inactive or inconclusive.

CCS(=O)(=O)N1N=C(c2cccc(NS(C)(=O)=O)c2)CC1c1ccccc1 (centres undefined)	Epigenetic reg inconclusive, Vif-APOBEC3G blk 10µM, Vif-APOBEC3F blk 10µM
N[C@]1(C(=O)O)CC[C@@H](C(=O)O)C1 (racemic)	none (no result: Vif-APOBEC3G blk, Vif-APOBEC3F blk, miR-21 reporter)
CC(=O)O[C@@H]1C[C@@]2(C)C(c3ccoc3)C[C@H]3O[C@]32[C@]2(C)C(=O)C(O)=C3C(C)(C)C(=O)C=C[C@]3(C)C12 (some centres undefined)	none (no result: Vif-APOBEC3G blk, Vif-APOBEC3F blk, miR-21 reporter)
O=C1NC(=O)N(Cc2ccc(F)cc2)C(=O)/C1=C\C=C\c1ccco1	Vif-APOBEC3G blk inconclusive, Vif-APOBEC3F blk 10µM
Cc1ccc(N2C(=O)NC(=O)/C(=C/C=C/c3ccco3)C2=O)cc1	Vif-APOBEC3G blk inconclusive, Vif-APOBEC3F blk inconclusive
CC(C)c1ccc(N2C(=O)NC(=O)/C(=C/C=C/c3ccco3)C2=O)cc1	Vif-APOBEC3G blk 8.9µM, Vif-APOBEC3F blk inconclusive
O=c1c2ccccc2nc(/C=C/c2ccc([N+](=O)[O-])o2)n1-c1ccc(O)cc1	Vif-APOBEC3G blk inconclusive, Vif-APOBEC3F blk inconclusive, miR-21 reporter inconclusive
Cc1cccc(-n2c(/C=C/c3ccc([N+](=O)[O-])o3)nc3ccccc3c2=O)c1	Vif-APOBEC3G blk inconclusive, Vif-APOBEC3F blk 8.9µM
Cc1cccc(-n2c(/C=C/c3c(C)[nH]c4ccccc34)nc3ccccc3c2=O)c1	Epigenetic reg 4µM, Vif-APOBEC3F blk 10µM
O=Cc1c(C(=O)O)n(Cc2ccc(Cl)cc2)c2ccccc12	Vif-APOBEC3G blk inconclusive, Vif-APOBEC3F blk 10µM
Cc1c(C=O)c2ccccc2n1Cc1ccccc1	none (no result: Epigenetic reg)
Cc1cccc(C(=O)Nc2ccc(C(=O)OCc3cc(=O)n4nc(C5CC5)sc4n3)cc2)c1	Epigenetic reg inconclusive
CC[C@]1(O)CC(O[C@@H]2CC(N(C)C)C(O)C(C)O2)c2c(cc3c(c2O)C(=O)c2c(O)cccc2C3=O)C1C(=O)OC (some centres undefined)	Epigenetic reg 6.3µM (no result: Vif-APOBEC3G blk, Vif-APOBEC3F blk, miR-21 reporter)
O=C1C(Cl)=C(Cl)C(=O)C(Cl)=C1Cl	none (no result: Vif-APOBEC3G blk, Vif-APOBEC3F blk, miR-21 reporter)
CCOc1ccc(C(=O)N2CCC(c3noc(-c4ccc(S(=O)(=O)N5CCCC5)cc4)n3)CC2)cc1	miR-21 reporter inconclusive
O=c1[nH]c(CN2CC=C(c3ccccc3)CC2)nc2scc(-c3ccccc3)c12	Epigenetic reg inconclusive, Vif-APOBEC3G blk inconclusive, Vif-APOBEC3F blk 10µM
CCCCn1c(O)c(C=NCCCn2ccnc2)c(=O)[nH]c1=O	none
CC(C)CCCn1c(O)c(/C=C2/C=CC=N2)c(=O)[nH]c1=O	Vif-APOBEC3G blk inconclusive, Vif-APOBEC3F blk 25µM
COc1cccc2c1C13CC[N+]4(CC5CC5)CO[C@]1(CCC(=O)C3)C4C2	none (no result: Vif-APOBEC3G blk, Vif-APOBEC3F blk, miR-21 reporter)
Cc1ccc(CNC(=O)c2ccccc2NC(=O)c2nsc3ccccc23)cc1	Vif-APOBEC3F blk 13µM
CN1/C(=C\C=C2C(=O)NC(=S)NC2=O)C(C)(C)c2ccccc21	Epigenetic reg 18µM
Cc1cc(N(CCCl)CCCl)ccc1C=Cc1ccncn1	Vif-APOBEC3G blk inconclusive, Vif-APOBEC3F blk 25µM (no result: Epigenetic reg, miR-21 reporter)
CC(C)[C@]1(NC(=O)[C@@H]2C=C3c4cccc5[nH]cc(c45)C[C@H]3N(C)C2)O[C@@]2(O)C3CCCN3C(=O)[C@H](Cc3ccccc3)N2C1=O (some centres undefined)	none (no result: Vif-APOBEC3G blk, Vif-APOBEC3F blk, miR-21 reporter)
Cc1cccc(-n2c(O)c(/C=C/C=Nc3ccccc3)c(=O)[nH]c2=O)c1	Vif-APOBEC3F blk 10µM
Cc1cccc(N=Cc2c(O)n(-c3ccccc3C)c(=O)[nH]c2=O)c1	none
Cc1ccccc1-n1c(O)c(/C=C/C=Nc2ccccc2)c(=O)[nH]c1=O	Vif-APOBEC3F blk 20µM
CNS(=O)(=O)c1ccc(N=Cc2c(O)n(-c3cccc(C)c3)c(=O)[nH]c2=O)cc1	none
CC(C)Oc1ccc(CNC(=O)C2CCCN(S(=O)(=O)c3ccc4c(ccn4C)c3)C2)cc1 (centres undefined)	miR-21 reporter inconclusive
Cc1c2ccncc2c(C)c2c1[nH]c1ccccc12	Epigenetic reg inconclusive, Vif-APOBEC3G blk inconclusive, Vif-APOBEC3F blk 10µM, miR-21 reporter inconclusive
CN(C)C1C(=O)C(C(N)=O)=C(O)[C@@]2(O)C(=O)C3=C(O)c4c(O)cccc4[C@@](C)(O)C3[C@H](O)C12 (some centres undefined)	none (no result: Vif-APOBEC3G blk, Vif-APOBEC3F blk, miR-21 reporter)
O=[N+]([O-])c1ccc(N2CCCCCC2)c2nonc12	Vif-APOBEC3F blk inconclusive (no result: Epigenetic reg)
O=[N+]([O-])c1ccc(NCc2ccccc2)c2nonc12	Epigenetic reg 22µM
CC(CN)CC(=O)O (centres undefined)	none (no result: Vif-APOBEC3G blk, Vif-APOBEC3F blk, miR-21 reporter)
COc1ccc(/C=C2\Oc3cc(OC(=O)N4CCOCC4)ccc3C2=O)c(OC)c1	Vif-APOBEC3G blk inconclusive, Vif-APOBEC3F blk 25µM
CN(C)C(=O)Oc1ccc2c(c1)O/C(=C\c1ccc(Cl)cc1)C2=O	none (no result: Epigenetic reg)
CCCCn1c(O)c(C(=O)/C=C/c2c[nH]c3ccccc23)c(=O)[nH]c1=O	Epigenetic reg inconclusive, Vif-APOBEC3G blk 3.2µM
CN(C)c1ccc(N=Cc2c(O)n(CCC3=CCCCC3)c(=O)[nH]c2=O)cc1	Epigenetic reg inconclusive, Vif-APOBEC3F blk inconclusive
CCN(CC)c1ccc(N=Cc2c(O)n(CCC3=CCCCC3)c(=O)[nH]c2=O)cc1	Epigenetic reg 22µM, Vif-APOBEC3F blk 22µM
Cc1cc2c(C(F)(F)F)cc(=O)oc2c2c1NCCC2	none
O=c1cc(C(F)(F)F)c2cc3c4c(c2o1)CCCN4CCC3	Epigenetic reg 7.1µM, Vif-APOBEC3F blk inconclusive
COc1ccccc1N=c1scc(-c2ccc(S(=O)(=O)N3CCCC3)cc2)n1C	miR-21 reporter inconclusive
CN1C(=O)C(=Cc2ccc(N3CCOCC3)o2)C(=O)N(C)C1=O	Vif-APOBEC3F blk 11µM
CN1C(=O)C(=Cc2ccc(N3CCCCCC3)o2)C(=O)N(C)C1=S	Vif-APOBEC3G blk inconclusive
COc1ccccc1-n1c(/C=C/c2ccc(O)cc2)nc2ccccc2c1=O	Vif-APOBEC3F blk 10µM (no result: Epigenetic reg)
N#CC(C#N)=NNc1ccc(OC(F)(F)F)cc1	none (no result: Vif-APOBEC3G blk, Vif-APOBEC3F blk, miR-21 reporter)
O=C1NC(=O)N(c2ccc3c(c2)OCO3)C(=O)/C1=C\c1ccc(N2CCCCC2)o1	Vif-APOBEC3F blk 4.5µM
Cn1c(NN=O)nc2ccccc21	Epigenetic reg 11µM
CC(C)c1cc2c(c(O)c1O)[C@]1(C(=O)O)CCCC(C)(C)C1CC2 (some centres undefined)	none (no result: Vif-APOBEC3G blk, Vif-APOBEC3F blk, miR-21 reporter)
COc1ccc(OC)c(N2C(=O)NC(=O)/C(=C\c3ccc([N+](=O)[O-])s3)C2=O)c1	Epigenetic reg inconclusive | C127i cell count inactive | HCC4017 viab inactive | H358 viab inactive
